The test has as its target Orexin/Hypocretin receptor type 1 (Homo sapiens, UniProt O43613). The test is described as follows: Antagonist activity at human OX1R expressed in CHOK1 cells assessed as reduction in orexin A-induced calcium flux preincubated followed by orexin A addition by FLIPR assays. The test is classed as functional, cell-based. Background: Calcium flux is commonly read through the fluorescence of an indicator in the cells.

By UniProt entry, the sequences of proteins in these tests, tags left out.
UniProt O43613, whole entry: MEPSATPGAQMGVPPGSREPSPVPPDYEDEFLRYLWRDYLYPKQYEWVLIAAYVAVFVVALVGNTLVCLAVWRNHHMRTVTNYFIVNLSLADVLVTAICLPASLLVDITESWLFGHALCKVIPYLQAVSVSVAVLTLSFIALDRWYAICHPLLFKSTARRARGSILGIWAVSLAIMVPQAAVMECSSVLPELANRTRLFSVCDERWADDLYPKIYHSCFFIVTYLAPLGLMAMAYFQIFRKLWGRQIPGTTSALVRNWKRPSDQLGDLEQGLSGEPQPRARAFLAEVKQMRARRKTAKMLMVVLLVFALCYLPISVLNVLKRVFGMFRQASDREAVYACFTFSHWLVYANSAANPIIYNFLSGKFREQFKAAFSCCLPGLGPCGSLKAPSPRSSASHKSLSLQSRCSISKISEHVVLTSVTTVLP

A value given as a limit tells only on which side of the number the result lay.

As to `Cc1c(C#N)ccnc1O[C@@H]1CC[C@@H](C)N(C(=O)c2ccncc2-c2ccccc2)C1`, the half-inhibitory concentration (IC50) amounted to 4.45 µM.

As for `Cc1c(C#N)ccnc1O[C@@H]1CC[C@@H](C)N(C(=O)c2ccccc2OC(F)(F)F)C1`, the IC50 stood at 1.97 µM.

`COc1ccc(C(=O)N2C[C@H](Oc3nccc(C#N)c3C)CC[C@H]2C)c(C2CC2)n1`: the IC50 is greater than 10 µM.

Turning to `COc1ccc(C(=O)N2C[C@H](Oc3nccc(C#N)c3C)CC[C@H]2C)c(-n2nccn2)c1`, the IC50 is 6.12 µM.

Turning to `COc1ccc(C(=O)N2C[C@H](Oc3nccc(C#N)c3C)CC[C@H]2C)c(-c2ccncc2)n1`, the IC50 is greater than 10 µM.

As usually defined, the IC50 is the concentration needed to halve the response being measured.

(Values after ChEMBL document CHEMBL3997828, “Investigation of orexin-2 selective receptor antagonists: Structural modifications resulting in dual orexin receptor antagonists” (Bioorg Med Chem Lett, 2017).)
